The results in this text go back to PubChem BioAssay AID719 (SRMLSC, 2007).

Structures are written as SMILES. The entries are a selection whose mix differs from that of the whole data set. Some results for these compounds are left out of this collection, so the calls shown say nothing about other tests. Active and inactive are the calls of the source.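 How the source made its calls: active means viability at or below 50% in the single dose screen; inactive means viability above 50%.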

This test can be described thus: antiproliferative effect on LL 47 fibroblasts – human, LL 47 cells, CellTiter-Glo luminescence, primary screen (AID 719).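 Further: compound exposure lasted 72 h before the ATP readout; 100% = median luminescence of untreated cell-only wells.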 The note with it: LL 47 human lung fibroblast viability, ATP luminescence; at 10 µM; active compounds read low. In short, it runs like this:
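Benchmarks: Cell-only wells, no compound | Test system: LL 47 human lung fibroblasts, passage 12 or lower | Input: 1,150 cells/well | Measured by: CellTiter-Glo luminescence measuring cellular ATP | Medium: IMEM, 15% FBS supplement | Schedule: Overnight attachment after seeding, then 72 h compound exposure at 37 °C | Doses: Compound addition at 0.1% DMSO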
As to `CN(C)c1cccc(C(=O)NCC2(N(C)C)CCCCC2)c1`, the viability was inactive: 101%.

For the compound `O=C(OC1CN2CCC1CC2)C(CO)(c1ccccc1)c1ccccc1` (configuration not stated), the viability was inactive: 95.3%.
